# Experimental data taken from patent US8350048B2 (dated 2013).
# Protein sequences, listed by entry. Tags and fused reporters are not part of them.
# UniProt P11712, whole entry: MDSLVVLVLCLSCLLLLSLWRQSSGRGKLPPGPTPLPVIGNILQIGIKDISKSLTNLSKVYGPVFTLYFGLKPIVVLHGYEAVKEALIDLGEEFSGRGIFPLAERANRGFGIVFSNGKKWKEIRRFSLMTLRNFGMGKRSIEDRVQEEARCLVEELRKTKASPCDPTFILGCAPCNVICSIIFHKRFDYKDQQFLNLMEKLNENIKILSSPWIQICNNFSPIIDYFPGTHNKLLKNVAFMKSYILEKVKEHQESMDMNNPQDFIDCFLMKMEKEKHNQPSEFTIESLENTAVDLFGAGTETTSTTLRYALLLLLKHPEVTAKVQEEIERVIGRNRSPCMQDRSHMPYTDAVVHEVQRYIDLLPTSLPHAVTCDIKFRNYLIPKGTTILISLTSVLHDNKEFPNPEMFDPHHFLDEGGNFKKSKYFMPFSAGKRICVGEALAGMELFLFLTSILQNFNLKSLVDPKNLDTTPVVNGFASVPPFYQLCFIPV
# UniProt P08684, whole entry: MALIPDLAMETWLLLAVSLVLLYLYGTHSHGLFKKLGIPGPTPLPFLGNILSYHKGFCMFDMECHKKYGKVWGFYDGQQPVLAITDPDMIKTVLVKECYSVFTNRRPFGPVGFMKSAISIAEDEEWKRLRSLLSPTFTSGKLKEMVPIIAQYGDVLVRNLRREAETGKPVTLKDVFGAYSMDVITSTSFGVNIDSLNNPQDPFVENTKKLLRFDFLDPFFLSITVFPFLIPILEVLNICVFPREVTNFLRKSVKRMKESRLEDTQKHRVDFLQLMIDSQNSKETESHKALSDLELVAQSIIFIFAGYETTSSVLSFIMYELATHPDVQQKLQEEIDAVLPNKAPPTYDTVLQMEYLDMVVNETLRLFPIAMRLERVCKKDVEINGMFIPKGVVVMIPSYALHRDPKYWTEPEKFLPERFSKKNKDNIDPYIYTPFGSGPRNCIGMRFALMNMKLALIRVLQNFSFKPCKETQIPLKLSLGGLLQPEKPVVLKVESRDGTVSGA
# UniProt P10635, whole entry: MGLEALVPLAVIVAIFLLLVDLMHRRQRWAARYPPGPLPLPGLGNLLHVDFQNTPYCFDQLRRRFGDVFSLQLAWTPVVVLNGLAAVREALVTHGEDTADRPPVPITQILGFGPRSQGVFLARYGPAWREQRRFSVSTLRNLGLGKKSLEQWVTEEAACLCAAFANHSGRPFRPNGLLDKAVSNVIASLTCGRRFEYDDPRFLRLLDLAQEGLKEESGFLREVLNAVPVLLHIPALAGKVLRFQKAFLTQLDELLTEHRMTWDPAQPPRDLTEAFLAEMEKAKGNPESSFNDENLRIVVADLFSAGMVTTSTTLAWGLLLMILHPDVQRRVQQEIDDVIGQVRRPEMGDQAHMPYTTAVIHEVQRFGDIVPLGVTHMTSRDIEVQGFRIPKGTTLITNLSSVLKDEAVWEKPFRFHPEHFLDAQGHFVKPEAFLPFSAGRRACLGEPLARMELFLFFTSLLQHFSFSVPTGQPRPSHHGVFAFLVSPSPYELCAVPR
# UniProt P05177, whole entry: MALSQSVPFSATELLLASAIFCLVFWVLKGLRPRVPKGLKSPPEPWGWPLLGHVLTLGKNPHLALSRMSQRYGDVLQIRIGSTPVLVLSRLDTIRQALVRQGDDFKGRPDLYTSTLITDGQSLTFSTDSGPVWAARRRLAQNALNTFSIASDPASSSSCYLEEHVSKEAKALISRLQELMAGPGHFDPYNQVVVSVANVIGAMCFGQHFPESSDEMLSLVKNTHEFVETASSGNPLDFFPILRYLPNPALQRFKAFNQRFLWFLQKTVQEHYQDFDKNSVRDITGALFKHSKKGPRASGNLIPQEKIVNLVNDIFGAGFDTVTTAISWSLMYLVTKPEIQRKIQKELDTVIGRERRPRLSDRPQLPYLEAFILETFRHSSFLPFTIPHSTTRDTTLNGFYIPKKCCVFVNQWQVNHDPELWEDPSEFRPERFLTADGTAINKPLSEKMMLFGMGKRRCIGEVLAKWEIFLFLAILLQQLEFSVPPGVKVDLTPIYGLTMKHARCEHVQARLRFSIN
# UniProt P33261, whole entry: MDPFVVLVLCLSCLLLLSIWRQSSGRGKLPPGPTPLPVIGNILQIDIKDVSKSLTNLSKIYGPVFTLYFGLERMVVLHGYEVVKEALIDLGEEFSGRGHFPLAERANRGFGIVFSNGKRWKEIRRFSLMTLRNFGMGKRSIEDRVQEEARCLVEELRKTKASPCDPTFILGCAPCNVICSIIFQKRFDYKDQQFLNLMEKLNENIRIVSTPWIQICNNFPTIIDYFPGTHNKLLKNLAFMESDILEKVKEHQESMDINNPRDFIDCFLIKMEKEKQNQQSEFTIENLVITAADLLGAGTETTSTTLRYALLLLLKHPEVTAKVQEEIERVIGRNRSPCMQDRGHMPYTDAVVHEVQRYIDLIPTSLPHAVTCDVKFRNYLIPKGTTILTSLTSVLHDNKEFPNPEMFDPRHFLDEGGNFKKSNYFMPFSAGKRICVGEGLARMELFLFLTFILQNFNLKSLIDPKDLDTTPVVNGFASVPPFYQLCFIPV
# How the values were obtained:
# CYP2C9 [1] = target: T1, CYP2C9 (Homo sapiens, UniProt P11712)
# CYP3A4 [2] = target: T2, CYP3A4 (Homo sapiens, UniProt P08684); experiment: CYP450 inhibition CDNA-CYP3A4-BQ
# CYP3A4 [3] = target: T2, CYP3A4; experiment: CYP450 inhibition CDNA-CYP3A4-BFC; details: for inhibition at 30 min, 10 μM: human, E. coli expressed CYP3A4, pH 7.4, probe BFC 150 μM
# CYP3A4 [4] = target: T2, CYP3A4
# CYP3A4 [5] = target: T2, CYP3A4; remark: listed apart in the source
# CYP3A4 [6] = target: T2, CYP3A4; remark: listed apart in the source
# CYP2D6 = CYP2D6 (Homo sapiens, UniProt P10635)
# CYP1A2 [7] = target: T3, CYP1A2 (Homo sapiens, UniProt P05177)
# CYP2C19 = CYP2C19 (Homo sapiens, UniProt P33261)
# [8] = Metabolic stability of test compounds (HLM15'); assay type: in vitro ADME; details: human, pH 7.4
# CYP3A4 [9] = target: T2, CYP3A4; experiment: in vitro; details: pH 7.4
# CYP2C9 [10] = target: T1, CYP2C9; experiment: in vitro; details: pH 7.4
# CYP1A2 [11] = target: T3, CYP1A2; experiment: in vitro; details: pH 7.4
structure (smiles),measurement,setting,value
CC(C)CN(C[C@@H](O)[C@H](Cc1ccccc1)NC(=O)OCc1cncs1)C(=O)c1ccc2nc(N3CCCC3)oc2c1 [Compound C2],Cyp450 inhibition: CDNA-CYP2C9-MFC (% inhibition),CYP2C9 [1],99%
same,Cyp450 inhibition: CDNA-CYP3A4-BQ (% inhibition),"CYP3A4 [2]; 10 μM test compound, substrate BQ 60 μM, 30 min",81%
same,Cyp450 inhibition: CDNA-CYP3A4-BFC (% inhibition),"CYP3A4 [3]; 10 μM test compound, substrate BFC 150 μM, 30 min",82%
CC(C)CN(C[C@@H](O)[C@H](Cc1ccccc1)NC(=O)OCc1cncs1)C(=O)c1ccc2nc(N)oc2c1 [Compound C22],Cyp450 inhibition: CDNA-CYP3A4-BFC (% inhibition),CYP3A4 [4],99%
same,Cyp450 inhibition: CDNA-CYP3A4-BQ (% inhibition),CYP3A4 [5],81%
same,Cyp450 inhibition: CDNA-CYP3A4-DBF (% inhibition),CYP3A4 [6],94%
same,Cyp450 inhibition: CDNA-CYP2C9-MFC (% inhibition),CYP2C9 [1],85%
same,Cyp450 inhibition: CDNA-CYP2D6-AMMC (% inhibition),CYP2D6,42%
same,Cyp450 inhibition: CDNA-CYP1A2-CEC (% inhibition),CYP1A2 [7],10%
same,Cyp450 inhibition: CDNA-CYP2C19-CEC (% inhibition),CYP2C19,73%
CC(C)CN(C[C@@H](O)[C@H](Cc1ccccc1)NC(=O)OCc1cncs1)C(=O)c1ccc2nc(N(C)CCN(C)C)oc2c1 [Compound C24],Cyp450 inhibition: CDNA-CYP2C9-MFC (% inhibition),CYP2C9 [1],65%
same,Cyp450 inhibition: CDNA-CYP2D6-AMMC (% inhibition),CYP2D6,88%
same,Cyp450 inhibition: CDNA-CYP1A2-CEC (% inhibition),CYP1A2 [7],3%
same,Cyp450 inhibition: CDNA-CYP2C19-CEC (% inhibition),CYP2C19,54%
"CCc1nc2ccc(C(=O)N(CC(C)C)C[C@@H](O)[C@H](Cc3ccccc3)NC(=O)OCc3cncs3)cc2o1 [Compound C39, Thiazol-5-ylmethyl (2S,3R)-4-(2-ethyl-N-isobutylbenzo[d]oxazole-6-carboxamido)-3-hydroxy-1-phenylbutan-2-ylcarbamate]",recovery,[8],63%
"CC(C)CN(C[C@@H](O)[C@H](Cc1ccccc1)NC(=O)OCc1cncs1)C(=O)c1ccc2nc(C(C)C)oc2c1 [Compound C45, Thiazol-5-ylmethyl (2S,3R)-3-hydroxy-4-(N-isobutyl-2-isopropylbenzo[d]-oxazole-6-carboxamido)-1-phenylbutan-2-ylcarbamate]","inhibition at 10 min, 10 μM",CYP3A4 [9],90%
same,"inhibition at 30 min, 10 μM",CYP2C9 [10],97%
same,"inhibition at 15 min, 10 μM",CYP1A2 [11],6%
same,"inhibition at 30 min, 10 μM","CYP3A4 [2]; human, E. coli expressed CYP3A4, pH 7.4, probe BQ 60 μM",78%
same,"inhibition at 30 min, 10 μM",CYP3A4 [3],99%
C#CCN(C)c1nc2ccc(C(=O)N(CC(C)C)C[C@@H](O)[C@H](Cc3ccccc3)NC(=O)OCc3cncs3)cc2o1 [Compound C50],Cyp450 inhibition: CDNA-CYP3A4-BFC (% inhibition),CYP3A4 [4],96%
same,Cyp450 inhibition: CDNA-CYP3A4-BQ (% inhibition),CYP3A4 [5],85%
same,Cyp450 inhibition: CDNA-CYP3A4-DBF (% inhibition),CYP3A4 [6],98%
same,Cyp450 inhibition: CDNA-CYP2C9-MFC (% inhibition),CYP2C9 [1],103%
same,Cyp450 inhibition: CDNA-CYP2D6-AMMC (% inhibition),CYP2D6,55%
same,Cyp450 inhibition: CDNA-CYP1A2-CEC (% inhibition),CYP1A2 [7],12%
same,Cyp450 inhibition: CDNA-CYP2C19-CEC (% inhibition),CYP2C19,90%
"CC(C)CN(C[C@H](O)[C@H](Cc1ccccc1)NC(=O)OCc1cncs1)C(=O)c1ccc2nc(N3CCCC3)oc2c1 [Compound C51, Thiazol-5-ylmethyl (2S,3S)-3-hydroxy-4-(N-isobutyl-2-(pyrrolidin-1-yl)-benzo[d]oxazole-6-carboxamido)-1-phenylbutan-2-ylcarbamate]","inhibition at 15 min, 10 μM",CYP1A2 [11],13%
same,"inhibition at 30 min, 10 μM",CYP3A4 [3],98%

# Like-named read-outs stand apart in the source and are kept apart here.
